Antibody variant affinities, Ab-14 light chain, assay B

Target peptide (SARS-CoV-2 spike, HR2 region): PDVDLGDISGINAS

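The starting antibody came from a phage panning campaign against this peptide. This is the validation round: designs drawn from the data on random variants, tested in the same kind of assay. Several design methods are mixed in this list. The scFvs were displayed on barcoded MATa yeast, the peptide on MATalpha yeast. After mating in shaken culture at 30 °C for 16 h, diploids were selected and their barcode pairs sequenced. Read counts were normalised to the haploid input and turned into Kd by a linear fit to BCL2-family pairs of known affinity, for each replicate. Mating was done six times.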

Each scFv is VH, three GGGGS repeats, VL, as in the parent Ab-14, and differs from it in the CDRs of the light chain only.
VH: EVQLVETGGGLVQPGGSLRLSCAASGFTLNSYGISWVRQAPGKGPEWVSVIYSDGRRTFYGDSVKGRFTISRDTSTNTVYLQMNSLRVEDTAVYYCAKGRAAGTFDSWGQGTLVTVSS
VL: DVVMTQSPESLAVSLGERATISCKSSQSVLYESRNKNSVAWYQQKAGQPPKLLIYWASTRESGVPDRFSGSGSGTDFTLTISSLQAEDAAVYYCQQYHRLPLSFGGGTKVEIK

Variants are written as CDR1, CDR2 and CDR3 of the light chain (limits as in the source). Parent: KSSQSVLYESRNKNSVA, WASTRES, QQYHRLPLS.
Variants here have at most six changes.
Numbers give log10(Kd / nM), so 0 is 1 nM and 3 is 1 µM. Smaller is tighter.
A mean of the replicates is given; it leaves out those without a signal.
Where no diploid with the target was found in that replicate, the entry reads "ND": below detection, most likely a poor binder, though not proof of it.
Nonspecific signal, from three strains lacking the peptide, appeared in 4% of pairings of all light chain designs, centred on 2.64 (5% of these signals below 1.59); values are not corrected for it.
The authors averaged sequences with at least three values out of six and counted those with two or fewer as poor binders.
Values of this round are not directly comparable with the first-round values of the same sequences.

Variant KLIQSVLYESRNCNSVA / WASTRES / QQYHRLPLS gave ND, ND, ND, 1.33, 3.18, ND (mean 2.25). Variant KLQQSVLYESRNKNNVA / NASTRED / QQYHRLPLS showed -0.13, 0.12, 0.37, -0.14, -0.28, 0.53 (mean 0.08). For KSDQGVLYESRNKNSVA / GASTRES / QQYHRLPLH, the assay gave 0.52, 0.30, 0.20, 0.08, -0.01, 0.64 (mean 0.29). With KVSQSVWYESRNKNSVA / NASTRES / QQYHRLPLS the result was -0.06, -0.09, -0.23, -0.17, -0.17, -0.03 (mean -0.13). For KVSQSVLMEWRNKNSVA / DASTRES / QQYHRLPLS, the assay gave 0.21, -0.02, 0.05, -0.29, -0.25, 0.10 (mean -0.03). With KTSQSVLYESRNKNSVA / WASTRES / QQYHPLPLS the result was ND, ND, ND, ND, ND, ND. For KFSQSWLYESRNKNSVA / GASSRES / QQYHRLPLS, the assay gave 0.46, 0.46, 0.61, 0.38, 0.48, 0.77 (mean 0.53). Variant KLSWSMLYESRNKNSVA / DASQRES / QQYHRLPLS showed 0.40, 0.27, 0.42, 0.19, 0.47, 0.69 (mean 0.41). Variant KSSQSWLYESHNKNSVA / GASTRSS / QQYDRMPLS gave 0.76, 0.65, 0.55, 0.74, 0.49, 1.04 (mean 0.71).

Variant KLQQSMLYESRNKNSVA / NASLRES / QCYHRLPLS gave 1.46, 1.49, 1.39, 1.39, 1.23, 1.42 (mean 1.40). With KSSQSVLYESRNPNSVA / EASTRES / QQYHRLPLS the result was -0.24, -0.44, -0.63, -0.58, -0.48, -0.33 (mean -0.45). With KLQQSVLYESRNKNSVA / EASTREM / QQYHRLPLS the result was -0.22, -0.21, -0.43, -0.34, -0.32, -0.17 (mean -0.28). For KLSQSVLYEMRNKNSVA / QASTRES / QQYHRLPLS, the assay gave -0.11, 0.15, -0.58, -0.07, 0.18, -0.05 (mean -0.08). Variant KSSQSVLNESRNKNSVA / WASTRES / QQYHRNPLS gave ND, ND, ND, ND, ND, ND. With KSSQSVLYESRNLNHVA / RASTRES / QQYYRLPLS the result was 0.78, 0.75, 0.42, 0.33, 1.88, 0.67 (mean 0.80). For KSSDSPLYESRNKNSVA / WASTRES / QQYMRLPLS, the assay gave 1.46, 1.15, 0.95, 1.39, 1.13, 1.66 (mean 1.29). With KFSQSVLYESRTKNSVA / NASTRES / QQYHILPLS the result was -0.06, -0.05, 0.09, 0.13, -0.23, 0.06 (mean -0.01). Variant DSSQSCLYESRNKNSVA / WASTRES / QQYHRLPIS showed ND, ND, ND, ND, ND, ND.

Variant KSSQSVLYESRNQNSVA / WASVRES / QQYHRLPLN showed ND, ND, ND, ND, ND, ND. Variant KQSQSVLYESRNKNSVA / DASTRES / YQYHRLPSS gave 1.85, 0.44, 1.33, 0.91, 1.02, 1.75 (mean 1.22). Variant KSSQSVLYESRNVNSVA / WASVRES / QQYHRLPLS gave ND, 2.06, 2.55, 2.03, 2.33, 3.38 (mean 2.47). Variant KWAGSQLYESRNKNSVA / NASTRES / QQYRRLPLS showed -0.07, -0.10, -0.27, -0.26, -0.16, 0.27 (mean -0.10). Variant KSSQSVLPESDNKNSVA / GASTRES / QQYHRLPLS gave 3.58, 0.95, 0.10, ND, 3.73, 1.42 (mean 1.96). Variant KLSQSVLYEERNKNSVA / WASTRES / QQCHRLPLS showed ND, ND, ND, ND, ND, 2.94. Variant HSSPSVLYESRNKNNVA / GASTRES / QQYHRLPLS showed -0.02, -0.46, -0.27, -0.31, -0.20, -0.23 (mean -0.25). Variant KQSQSVLYESRNKNSVA / DASTRES / QQYHRLPLK showed 0.78, 0.15, -0.19, 0.11, 0.16, 0.64 (mean 0.27). With KLSQSVLYESRNKNSVA / EASERES / QQYHRLPLS the result was -0.24, -0.27, -0.31, -0.33, -0.27, -0.16 (mean -0.27).

With KHSQSFLYISRQQNSVA / WASTRES / QQYHRLPLD the result was ND, ND, ND, ND, ND, ND. Variant KSSQSVLYESRRKNSVA / NASTRES / QRYHRLPLS gave 3.11, 3.30, 3.37, ND, 3.62, ND (mean 3.35). With KLQQSVGYESRNKNSVA / DASTRES / QQYHRLPLS the result was 0.70, 0.88, 0.52, 0.70, 0.74, 0.96 (mean 0.75). For KSDQSVLPESGNKNSVA / AASTRES / QQYHRLPLS, the assay gave 0.20, 0.36, 0.24, 0.28, 0.30, 0.69 (mean 0.35). For KVSQSHLYESRNKNSVA / DASTRCS / QQYHRLPLS, the assay gave 0.00, -0.05, -0.07, -0.11, -0.05, -0.02 (mean -0.05). With KSSQSFLYESRNKNSVA / GASTRES / QEYHRLPLS the result was 0.80, 0.73, 0.51, 0.95, 0.55, 0.70 (mean 0.71). Variant KAQQSNEYESRNKWSVA / NASTRES / QQYHRLPLS showed 0.22, 0.74, 0.62, 0.53, 0.30, 0.75 (mean 0.52). Variant KSSQSVLYEDRNSNSVA / DASTRNS / QQYHRPPLS showed 1.70, 0.99, 0.83, 0.68, 0.79, 1.17 (mean 1.03). Variant KSSQSILYESRTKNSVA / WAMTRES / QQYHRLPLS showed 1.41, 1.64, 0.38, 0.80, 0.60, 0.93 (mean 0.96).

Variant KASQSDLYESRNKNSVA / GASTRES / QQYHRLPLS showed -0.46, -0.28, -0.24, -0.34, -0.03, -0.15 (mean -0.25). For KSSQSVLYESRNKNSVA / SASTRES / QQYHRLPLS, the assay gave 0.40, 0.63, 1.23, 0.55, 1.00, 0.76 (mean 0.76).

For reference, 6 entries of the list once more:

CDR-L1,CDR-L2,CDR-L3,"replicates, log10 nM","mean, log10 nM"
KQSQSVLYESRNKNSVA,DASTRES,QQYHRLPLK,"0.78, 0.15, -0.19, 0.11, 0.16, 0.64",0.27
KSDQGVLYESRNKNSVA,GASTRES,QQYHRLPLH,"0.52, 0.30, 0.20, 0.08, -0.01, 0.64",0.29
HSSPSVLYESRNKNNVA,GASTRES,QQYHRLPLS,"-0.02, -0.46, -0.27, -0.31, -0.20, -0.23",-0.25
DSSQSCLYESRNKNSVA,WASTRES,QQYHRLPIS,"ND, ND, ND, ND, ND, ND",ND
KFSQSWLYESRNKNSVA,GASSRES,QQYHRLPLS,"0.46, 0.46, 0.61, 0.38, 0.48, 0.77",0.53
KSSQSVLYESRNPNSVA,EASTRES,QQYHRLPLS,"-0.24, -0.44, -0.63, -0.58, -0.48, -0.33",-0.45

Source: Li et al. 2023 (doi:10.1038/s41467-023-39022-2), MIT Lincoln Laboratory and A-Alpha Bio; data file from the FLAb repository.